In article PMC4219730, “Meningiomas: A Comparative Study of ^68Ga-DOTATOC, ^68Ga-DOTANOC and ^68Ga-DOTATATE for Molecular Imaging in Mice” (PLoS ONE, 2014):

Tests used:
[1] = system: xenografts of a human meningioma cell line (CH-157MN); experiment: Dynamic PET study: volume of distribution (Vt) by Logan graphical analysis; type: in vivo, NUDE NU/NU mice; conditions: comparison between radiotracers
Procedure: (§1) Animals were scanned on a small-animal PET scanner (ARGUS PET-CT, SEDECAL, Madrid, Spain) under anesthesia (isoflurane, 3% induction and 1.5% maintenance in 100% O2). Imaging was performed 7–28 days after tumor cell inoculation. Animals were imaged over four consecutive weeks (at days 7, 14, 21 & 28 after cell inoculation) with one radiotracer (n = 8 with ^68Ga-DOTATOC; n = 4 with ^68Ga-DOTANOC and n = 4 with ^68Ga-DOTATATE). Half of the animals imaged with ^68Ga-DOTATOC were also imaged with the other two radiotracers in alternate days with respect to ^68Ga-DOTATOC (Figure 1). Overall, n values for the PET study were: 27 for ^68Ga-DOTATOC, 20 for ^68Ga-DOTANOC and 21 for ^68Ga-DOTATATE.
The tracers (^68Ga-DOTATOC, ^68Ga-DOTANOC, or ^68Ga-DOTATATE) were injected into the tail vein (mean, 11.47 MBq; range, 9.25–20.35 MBq) and a dynamic study centered in the tumor was acquired for 90.3 minutes (112 frames: 20×10 s, 10×30 s, and 82×60 s). Frames corresponding to the last 60 minutes of the study were summed to form a static image. […]
Vt was calculated from dynamic PET data using standard Logan graphical analysis for a two-tissue reversible compartmental model. […]

[2] = system: xenografts of a human meningioma cell line (CH-157MN); experiment: Static PET/CT study: SUVmax and SUV ratios in mice bearing meningioma xenografts; type: in vivo, NUDE NU/NU mice; conditions: comparison between radiotracers
Procedure: as §1
The tracers (^68Ga-DOTATOC, ^68Ga-DOTANOC, or ^68Ga-DOTATATE) were injected into the tail vein (mean, 11.47 MBq; range, 9.25–20.35 MBq) and a dynamic study centered in the tumor was acquired for 90.3 minutes (112 frames: 20×10 s, 10×30 s, and 82×60 s). Frames corresponding to the last 60 minutes of the study were summed to form a static image. Images were reconstructed using the 2D–OSEM (Ordered Subset Expectation Maximization) algorithm (16 subsets and two iterations), which yields a spatial resolution for this scanner of 1.45 mm Full Width at Half Maximum (FWHM), with a voxel size of 0.3875×0.3875×0.7750 mm^3. […]
Tumor, muscle, and liver SUVmax values at 30–90 minutes post-injection were recorded. […]

**Q.** Which “Vt liver (hepatic)” value [1] does the source give for “^68Ga-DOTA-Nal^3-octreotide [^68Ga-DOTANOC]” here?
**A.** significantly higher with ^68Ga-DOTANOC than with ^68Ga-DOTATOC and ^68Ga-DOTATATE

**Q.** What about the Vt tumor ([1]; two-tissue reversible compartmental model) of the same substance?
**A.** lower for ^68Ga-DOTANOC than for the other two tracers

**Q.** What about the “SUVmax liver (liver uptake)” value ([2]; 30-90 minutes post-injection, tail vein, ANOVA p<0.001) of the same substance?
**A.** higher uptake than ^68Ga-DOTATOC or ^68Ga-DOTATATE

**Q.** What about the “T/L SUV ratio (tumor-to-liver)” value ([2]; SUVmax of tumor normalized to SUVmax of liver, p<0.001) of the same substance?
**A.** lower uptake than ^68Ga-DOTATOC and ^68Ga-DOTATATE
